# Values quoted from earlier work in patent US20050196379A1, “Combination therapies with L-FMAU for the treatment of hepatitis B virus infection” (priority 2002, published 2005).
# Test system: hepatitis B virus
# Conditions: clinical studies, patients treated for hepatitis B
substance,measurement,value
"Interferon alpha-2b: Interferon alpha-2b, recombinant, Schering Corporation, for Injection",patients with no evidence of the hepatitis B virus in their blood over time,45%
